Measured values reported in US20070105759A1 (priority 2003, published 2007).

Sequences of proteins named here, by UniProt entry; tags and fusion partners are left off.
UniProt P32245, whole entry: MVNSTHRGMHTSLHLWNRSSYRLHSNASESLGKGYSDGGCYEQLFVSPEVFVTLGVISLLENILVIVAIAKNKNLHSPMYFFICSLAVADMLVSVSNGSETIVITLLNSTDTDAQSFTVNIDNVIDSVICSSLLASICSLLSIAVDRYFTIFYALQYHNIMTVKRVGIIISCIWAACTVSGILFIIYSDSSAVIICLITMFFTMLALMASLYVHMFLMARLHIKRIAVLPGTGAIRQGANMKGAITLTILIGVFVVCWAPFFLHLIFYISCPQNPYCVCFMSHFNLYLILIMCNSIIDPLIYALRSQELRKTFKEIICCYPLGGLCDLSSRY

Molecular target: MC4 (Homo sapiens, UniProt P32245)
Details: read-out: MC4 Ki

SMILES	Ki
CC(=O)N[C@H]1CSSCC[C@@H](C(N)=O)NC(=O)[C@H](Cc2c[nH]c3ccccc23)NC(=O)[C@H](CCCNC(=N)N)NC(=O)[C@@H](Cc2ccc(F)cc2)NC(=O)[C@H](Cc2c[nH]cn2)NC1=O [Compound No. 184, Ac-cyclo[Cys-His-(4-F-D-Phe)-Arg-Trp-hCys]-NH2]	2.51 nM
CC(=O)N[C@@H](CCCNC(=N)N)C(=O)N[C@H]1CCSSCC[C@@H](C(N)=O)NC(=O)[C@H](Cc2c[nH]c3ccccc23)NC(=O)[C@H](CCCNC(=N)N)NC(=O)[C@@H](Cc2ccccc2)NC(=O)[C@H](Cc2c[nH]cn2)NC1=O [Compound No. 195, Ac-Arg-cyclo[hCys-His-D-Phe-Arg-Trp-hCys]-NH2]	0.87 nM
